Source: patent US8501450B2, “Hepatitis C virus variants” (priority 2005, dated 2013)

System: HCV variant mixture in patient plasma
Test: Average phenotype for each patient
Conditions: individual subjects; 450 mg; FU (7-10 days after ETR)

CCC[C@H](NC(=O)[C@@H]1[C@H]2CCC[C@H]2CN1C(=O)[C@@H](NC(=O)[C@@H](NC(=O)c1cnccn1)C1CCCCC1)C(C)(C)C)C(=O)C(=O)NC1CC1 [VX-950]
Average Phenotype: 6.55
